This is a selection; strong and weak results do not stand in their true shares. Active and inactive are the calls of the source. The calls were made as follows: active = hit-call score of the fitted dose curve at least 0.9, where 1 is the maximum; inactive = score below 0.9.
Experiment: ATG_RORE_CIS: Attagene CIS-FACTORIAL HepG2 Assay for human RAR-related Orphan Receptor Element (RORE) (AID 2282959)
Settings: HepG2 Attagene cis-factorial RORE reporter, mRNA; actives raise or lower the signal
Procedure: ATG_CIS is a cell-based, multiplexed-readout assay that uses HepG2, a human liver cell line, with measurements taken at 24 hours after chemical dosing in a 24-well plate.ATG_RORE_CIS is one of 52 assay component(s) measured or calculated from the ATG_CIS assay. It is designed to make measurements of mRNA induction, a form of inducible reporter, as detected with fluorescence intensity signals by Reverse transcription polymerase chain reaction (RT-PCR) and Capillary electrophoresis technology.Data from the assay component ATG_RORE_CIS was analyzed into 1 assay endpoint. This assay endpoint, ATG_RORE_CIS, was analyzed with bidirectional fitting relative to DMSO as the negative control and baseline of activity. Using a type of inducible reporter, measures of mRNA for gain or loss-of-signal activity can be used to understand the reporter gene at the transcription factor-level as they relate to the gene RORA and RORB and RORC. Furthermore, this assay endpoint can be referred to as a primary readout, because this assay has produced multiple assay endpoints where this one serves a reporter gene function. To generalize the intended target to other relatable targets, this assay endpoint is annotated to the nuclear receptor intended target family, where the subfamily is orphan.
Human liver HepG2 cells are transiently transfected with multiple reporter transcription units (MRTUs) in 6-well plates using FuGene 6 reagent (Roche; 3 ml FuGene/1 mg DNA). The MRTU constructs are regulated by a cis-regulating element (promoter). […] A major difference between the CIS and TRANS system is that in CIS activities of endogenous TFs are measured, whereas the TRANS assay evaluates changes in activities of exogenous, chimeric NR-Gal4 proteins. […] At the end of 24 hour incubation, total RNA was isolated using TriZol reagent (Invitrogen). The isolated RNA is then reverse-transcribed using oligo(dT) primer and Mo-MLV reverse transcriptase (Invitrogen) with DNAse I (Ambion) treatment for 30 min. The one-tenth of the produced cDNA was amplified by PCR using Taq DNA polymerase (Invitrogen) and two reporter sequence-specific primers. The PCR products were fluorescently labeled by primer extension with 6-arboxyfluorescein (6-FAM) 5'-labeled reporter sequence-specific primer (2 min at 95 C, 20 s at 68 C and 10 min at 72 C) and these products were digested with 5U of HpaI (New England Biolabs) for 2h at 37 C. The fragments were purified using Qiaquick PCR columns (Qiagen), analyzed on an ABI 3130xL genetic analyzer (Applied Biosystems) with peak positions identified by using a set of X-rhodamine (ROX)-labeled MapMarker1000 molecular weight standards (BioVentures). The raw capillary electrophoresis data was processed using Attagraph software (Attagene).

SMILES	outcome
Cc1cccc([N+](=O)[O-])c1[N+](=O)[O-]	inactive
Cc1ccc([N+](=O)[O-])cc1[N+](=O)[O-]	inactive
CN(C)CCCl	inactive
Cc1ccc([N+](=O)[O-])c([N+](=O)[O-])c1	inactive
O=[N+]([O-])OCC(CO[N+](=O)[O-])(CO[N+](=O)[O-])CO[N+](=O)[O-]	inactive
Cc1c([N+](=O)[O-])cccc1[N+](=O)[O-]	inactive
O=[N+]([O-])c1cccc([N+](=O)[O-])c1	inactive
N#CBr	inactive
CC(C)OP(C)(=O)OC(C)C	inactive
COP(C)(=O)OC	inactive
CC(C)N(CCO)C(C)C	inactive
COc1ccc([N+](=O)[O-])cc1[N+](=O)[O-]	inactive
